# Test results published in ChEMBL document CHEMBL5126625, “Discovery of AZD4831, a Mechanism-Based Irreversible Inhibitor of Myeloperoxidase, As a Potential Treatment for Heart Failure with Preserved Ejection Fraction” (J Med Chem, 2022).
# Experiments:
# Myeloperoxidase [1] = molecular target: T1, Myeloperoxidase (Homo sapiens, UniProt P05164); assay: Inhibition of MPO (unknown origin) measured after 15 mins in presence of H2O2 by chemiluminescence assay
# T1 sequence (P05164 whole entry): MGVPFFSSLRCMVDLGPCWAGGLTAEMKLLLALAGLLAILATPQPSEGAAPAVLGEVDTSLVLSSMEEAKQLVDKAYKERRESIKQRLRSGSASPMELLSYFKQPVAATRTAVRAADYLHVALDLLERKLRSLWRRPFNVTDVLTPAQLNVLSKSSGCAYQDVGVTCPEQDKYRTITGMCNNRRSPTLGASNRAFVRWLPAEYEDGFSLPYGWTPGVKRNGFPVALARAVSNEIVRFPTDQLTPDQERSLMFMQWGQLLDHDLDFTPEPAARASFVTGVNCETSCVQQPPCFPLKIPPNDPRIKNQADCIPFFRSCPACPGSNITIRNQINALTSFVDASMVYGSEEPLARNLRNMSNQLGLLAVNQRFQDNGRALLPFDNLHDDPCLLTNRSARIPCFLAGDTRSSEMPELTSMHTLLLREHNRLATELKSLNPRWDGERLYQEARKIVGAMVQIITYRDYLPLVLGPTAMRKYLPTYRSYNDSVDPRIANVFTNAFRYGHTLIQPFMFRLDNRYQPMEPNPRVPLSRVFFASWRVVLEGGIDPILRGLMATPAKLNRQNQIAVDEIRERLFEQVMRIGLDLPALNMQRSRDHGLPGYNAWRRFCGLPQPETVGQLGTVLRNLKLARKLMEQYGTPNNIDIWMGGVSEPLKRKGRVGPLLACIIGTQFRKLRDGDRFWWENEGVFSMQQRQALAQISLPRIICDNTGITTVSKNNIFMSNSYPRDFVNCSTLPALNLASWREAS
# Myeloperoxidase [2] = molecular target: T1, Myeloperoxidase; assay: Inhibition of MPO in human HL-60 cells measured after 15 mins in presence of H2O2 by chemiluminescence assay; type: cell-based
Structure (SMILES),IC50 (Myeloperoxidase [1]; read-out: pIC50 (converted)) [nM],IC50 (Myeloperoxidase [2]) [nM],IC50 (Myeloperoxidase [1]; read-out: IC50) [nM]
NCc1cc(Cl)ccc1Cn1c(=S)[nH]c(=O)c2[nH]ccc21,15.8,11000,
C[C@@H](N)c1cc(Cl)ccc1Cn1c(=S)[nH]c(=O)c2[nH]cnc21,,3100,3.6
COc1ccc(Cl)cc1-c1cc(=O)[nH]c(=S)n1CC(N)=O [PF-06282999],,,187
